# “Also recorded” adds a separate entry of the source.
# Experiments:
# [1] = system: thr^34 -phosphorylated DARPP-32; assay: phospho-DARPP-32 immunoblot in mouse neostriatal slices; type: cell-based
# Procedure: (§1) Preparation and incubation of striatal slices. Male C57BL/6 mice (5-8 weeks old) were sacrificed by decapitation. The brains of the decapitated mice were rapidly removed and placed in ice-cold, oxygenated Krebs-HCO3 -buffer (124 mM NaCl, 4 mM KCl, 26 mM NaHCO3, 1.5 mM CaCl2, 1.25 mM KH2 PO4, 1.5 mM MgSO4 and 10 mM D-glucose, pH 7.4). Coronal slices (350 μm) were prepared using a vibratome. Striatum and nucleus accumbens were dissected from the slices in ice-cold Krebs-HCO3 - buffer. Each slice was placed in a polypropylene incubation tube with 2 ml of fresh Krebs-HCO3 - buffer containing adenosine deaminase (10 μg/ml). The slices were preincubated at 30° C. under constant oxygenation with 95 % O2 /5 % CO2 for 60 minutes. The buffer was replaced with fresh Krebs-HCO3 -buffer after 30 minutes of preincubation. In some experiments, slices were incubated in Ca^2+ -free/EGTA medium (124 mM NaCl, 4 mM KCl, 26 mM NaHCO3, 1.25 mM KH2 PO4, 3.0 mM MgSO4, 10 mM D-glucose and I mM EGTA, pH 7.4) for 20 minutes after 60 minutes of preincubation in Krebs-HCO3 - buffer. Slices were treated with drugs as specified in each experiment.
# Immunoblotting. Frozen tissue samples were sonicated in boiling 1% SDS and boiled for an additional 10 minutes. Small aliquots of the homogenate were retained for protein determination by the BCA protein assay method (Pierce) using bovine serum albumin as a standard. […] The membranes were immunoblotted using a monoclonal antibody (mAb-23; 1:750 dilution) [Snyder et al., (1992)], which is a phosphorylation state-specific antibody raised against a DARPP-32 peptide containing phospho-thr^34, the site phosphorylated by cAMP-dependent protein kinase. A monoclonal antibody (C24-5a; 1:7500 dilution) generated against DARPP-32 (Hemmings and Greengard, 1986), which is not phosphorylation state-specific, was used to estimate the total amount of DARPP-32 in samples.
# (§2) Data were analyzed by Student's t -test with significance defined as p<0.05.
# [2] = system: thr^34 -phosphorylated DARPP-32; assay: phospho-DARPP-32 immunoblot in nucleus accumbens slices; type: cell-based, mouse
# Procedure: as §1
# Immunoblotting. Frozen tissue samples were sonicated in boiling 1% SDS and boiled for an additional 10 minutes. […]
# as §2
# [3] = prepulse inhibition (PPI) of the startle reflex in mice; details: mouse, in vivo
# Text: Chambers that are used to assess startle are housed in a sound-attenuated room with a 60 dB(A) ambient noise level. Such chambers consist of a Plexiglass cylinder 8.2 cm in diameter resting on a 12.5×25.5 cm Plexiglass frame within a ventilated enclosure. Acoustic noise bursts are presented via a speaker mounted 24 cm above the animal. A piezoelectric accelerometer mounted below the Plexiglass frame detects and transduces motion within the cylinder. The delivery of acoustic stimuli is controlled by a microcomputer. Startle amplitude is defined as the average of 100 readings. Background noise and all acoustic stimuli are delivered through a speaker (frequency response between 0.5 and 16 Khz) in a chamber. The test session consists of giving: (i) a startle stimulus alone (a 118 dB [A] 40 ms broad band burst); or (ii) no stimulation; or (iii) a startle stimulus preceded 100 ms earlier by a prepulse (a 70 dB [A] 20 ms broad band burst). The amount of PPI is expressed as the percentage decrease in the startle response caused by the presentation of the prepulse. The amount of PPI is calculated using the following equation: [(startle amplitude caused by pulse alone minus startle amplitude caused by pulse preceded by prepulse)/(startle amplitude caused by pulse alone)]×100.
structure (smiles),measurement,setting,value
CCCN1CCC[C@@H]2Cc3n[nH]cc3C[C@H]21 [quinpirole],concentration of near maximal effect on SKF82526-stimulated DARPP-32 phosphorylation,[1],100 nM
same,decrease in SKF 82526-induced phosphorylation of DARPP-32,[1],40%
same,effect on the SKF82526-stimulated level of phosphorylated DARPP-32,[1],antagonized; also recorded: significantly reduced
same,effect on the level of phosphorylated DARPP-32 under Ca^2+ -free conditions,[1],failed to decrease
same,"level of phospho-DARPP-32, Cyclosporin A (+), 2 min",[1],5.98 ± 1.28
same,"level of phospho-DARPP-32, Cyclosporin A (+), 10 min",[1],5.60 ± 1.05
same,"level of phospho-DARPP-32, Cyclosporin A (-), 2 min",[1],0.525 ± 0.051
same,"level of phospho-DARPP-32, Cyclosporin A (-), 10 min",[1],0.580 ± 0.058
same,phosphorylated DARPP-32 as % of the SKF82526-stimulated level,[1],about 60%
same,quinpirole-induced decrease in the level of phosphorylated DARPP-32 in the presence of cyclosporin A,[1],still observed
same,reduction of the 8-bromo-cAMP-induced increase of phosphorylated DARPP-32,[1],30%
same,reduction of the forskolin-stimulated DARPP-32 phosphorylation,[1],35%
same,time at which the effect on the basal level was observed,[1],≤ 1 min
same,time for which the effect on the basal level was sustained,[1],at least 15 minutes
same,decrease of the SKF82526-stimulated DARPP-32 phosphorylation,[2],about 60%
same,decrease of the basal level of DARPP-32 phosphorylation,[2],about 50%
same,effect on the degree of PPI,[3],reduces the degree of PPI
